Laboratory results taken from patent US20120045433A1, “COMBINATION THERAPY” (priority 2010, published 2012).

Experiments:
[1] = tested on: human HT-29 cell xenografts; experiment: Antitumor activity (tumor growth inhibition, regression) in mice with human HT-29 colorectal cancer xenografts; assay type: in vivo; conditions: baseline at start of treatment (day 11 post implant)
From the text: Mice were implanted with human HT-29 cell xenografts. The mice, cell line used, and implantation are described below.
Tumor measurements were taken once or twice per week. All animals were individually followed throughout the experiment.

[2] = Toxicity/tolerability (body weight change, mortality, gross observation) in HT-29 xenograft mice; assay type: in vivo; conditions: self-limiting even under continuous treatment

cetuximab
Mean Tumor Volume (mm^3) Start Study [1]: 132.09 mm^3
EGFR inhibitor related skin rash [2]: common
